# In patent US20240254087A1, “SELECTIVE, PARTIAL, AND ARRESTIN-BIASED 5-HT2A AGONISTS WITH UTILITY IN VARIOUS DISORDERS” (Saint Joseph's University, priority 2021, published 2024):
# The chains behind the UniProt entries cited, without tags or fusion partners.
# UniProt P28223, whole entry: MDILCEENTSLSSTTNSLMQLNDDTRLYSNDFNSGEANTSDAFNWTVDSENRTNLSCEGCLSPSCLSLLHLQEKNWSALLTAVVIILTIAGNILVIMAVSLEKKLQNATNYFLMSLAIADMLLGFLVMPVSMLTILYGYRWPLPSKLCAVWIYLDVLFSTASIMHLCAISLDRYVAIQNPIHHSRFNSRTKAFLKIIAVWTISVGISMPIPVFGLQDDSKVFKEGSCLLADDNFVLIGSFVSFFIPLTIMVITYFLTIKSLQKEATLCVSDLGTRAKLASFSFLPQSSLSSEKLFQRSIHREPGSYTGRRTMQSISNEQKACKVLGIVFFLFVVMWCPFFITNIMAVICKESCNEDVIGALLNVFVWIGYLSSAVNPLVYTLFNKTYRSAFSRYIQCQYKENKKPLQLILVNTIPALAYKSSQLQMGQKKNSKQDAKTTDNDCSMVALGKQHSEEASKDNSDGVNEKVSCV
# Target: 5-HT2A (Homo sapiens, UniProt P28223)
# Test: NanoLuc internalization assay
# Conditions: 60 min
smiles,measurement,value
"NCCc1c[nH]c2ccc(O)cc12 [Compound 5-HT, reference compound]",Internalization of 5-HT2A receptors,strong internalization
